Calls of active or inactive are those of the source. No cut-off for these calls is given here.
Tests used:
Homo sapiens [1] = species on record: Homo sapiens; experiment: Selectivity ratio of Ki for human NPFF1 receptor to Ki for human NPFF2 receptor
Homo sapiens [2] = species on record: Homo sapiens; experiment: Selectivity ratio of Ki for human KOR to Ki for human NPFF2 receptor
Homo sapiens [3] = species on record: Homo sapiens; experiment: Selectivity ratio of Ki for human KOR to Ki for human NPFF1 receptor
Mus musculus [4] = experiment: Antihyperalgesic effect in C57BL/6J mouse assessed as reversal of NPFF-inducced effect at 30 nmol, icv administered 20 mins prior to NPFF challenge by 48 degC warm water tail withdrawal assay relative to vehicle-treated control
Mus musculus [5] = experiment: Antihyperalgesic effect in C57BL/6J mouse assessed as reversal of NPFF-inducced effect at 10 nmol, icv by 48 degC warm water tail withdrawal assay relative to vehicle-treated control
Mus musculus [6] = experiment: Antihyperalgesic effect in C57BL/6J mouse assessed as reversal of NPFF-inducced effect at 10 nmol, icv administered 20 mins prior to NPFF challenge by 48 degC warm water tail withdrawal assay relative to vehicle-treated control

Which results are given for `N=C(N)NCC(=O)NCC1(Cc2ccccc2)CCN(Cc2ccccc2)CC1`?
Ratio Ki (Homo sapiens [1]): 5; Ratio Ki (Homo sapiens [2]): 2

For `N=C(N)NCCNC(=O)C1(Nc2ccccc2)CCN(Cc2ccccc2)CC1`, which Ratio Ki (Homo sapiens [3]) is on record?
The Ratio Ki was greater than 18.

What about the Activity (Mus musculus [4]) of the same compound?
The Activity was “Active”.

How did the Ratio Ki (Homo sapiens [3]) turn out when `COc1cc(NC2(CNC(=O)CNC(=N)N)CCN(Cc3ccccc3)CC2)cc(OC)c1` was run?
The Ratio Ki was 7.

Which Ratio Ki (Homo sapiens [3]) does the source give for `N=C(N)NCC(=O)NCC1(Nc2cccc3ccccc23)CCN(Cc2ccccc2)CC1` here?
Its Ratio Ki is 7.

What does the source list for `CC(=N)NCCC[C@H](NC(=O)C12CC3CC(CC(C3)C1)C2)C(=O)N[C@@H](Cc1ccccc1)C(N)=O`?
Activity (Mus musculus [5]): inactive; Activity (Mus musculus [6]): Active
